# Test results as given in article PMC9061857, “A fluorogenic probe for granzyme B enables in-biopsy evaluation and screening of response to anticancer immunotherapies” (Nature Communications, 2022).
# Tests used:
# Assay type in all cases: cell-based, mouse
# [1] = test system: murine naïve CD8+ T cells; assay: GzmB expression in CD8+ T cells following cytokine stimulation (flow cytometry); conditions: after IL-2 treatment, anti-GzmB flow cytometry
# Protocol: Supplementary Figure 6. Analysis of GzmB expression in CD8+ T cells following
# cytokine stimulation. Representative histograms (from experiments performed in
# triplicate) of GzmB expression in murine naïve CD8+ T cells following 2 days of culture
# with anti-mouse CD3 (2 μg mL-1), anti-mouse CD28 (5 μg mL-1) and different cytokines at
# the following concentrations: IL-2 (60 U mL-1), IL-15 (60 U mL-1). Cells were incubated
# with anti-mouse GzmB PE (50 nM) and analysed by flow cytometry in a 5LSR flow
# cytometer. The histograms show naïve CD8+ T cells in red and cytokine-stimulated cells
# in blue. The percentage of anti-GzmB+ CD8+ T cells is shown for every condition.
# Excitation/emission wavelengths for anti-mouse GzmB PE: 561 nm/582 nm.
# (1 picture or pasted object on this page, not shown here)
# E0771 cells = assay: Flow cytometry of E0771 cells in co-culture with CD8+ T cells
# Protocol: Legends: viable (gray), H5-stained (green), apoptotic (red). […] Black arrows highlight T cells, yellow arrows highlight H5-stained intracellular GzmB puncta. […]
# E0771 cells (5 × 10^4 cells/well) were plated on Geltrex-coated six-well plates with IL-2 (1000 U mL^−1) and co-cultured with either murine CD8+ T cells (2.5 × 10^5 cells/well) which had been previously cultured for 2 days in E-DMEM with anti-mouse CD3e (2 µg mL^−1, ThermoFisher, Catalog: 16-0031-86), anti-mouse CD28 (5 µL mL^−1, ThermoFisher, Catalog: 16-0281-86), and IL-2 (80 U mL^−1). Treatments with staurosporine (1 μM) were for 1 h. […] Cells were then washed twice and incubated with Annexin V-AF647 (10 nM, 1:100 dilution) prior to flow cytometry analysis in a 5 L LSR (software: BD […] V8.0) with data analyzed with FlowJo V10. […]
# mouse CD8+ T cells and mKate-E0771 cells. b) Representative flow cytometry contour plots of E0771 cells in: left) co-cultures of E0771 cells (50,000 cells well-1) and activated […]
# (IL-2 for 24 h) murine CD8+ T cells (200,000 cells well-1), center) co-cultures of E0771 […]
# cells (50,000 cells well-1) and non-activated (IL-2 for 2 h) murine CD8+ T cells (200,000 […]
# cells well-1), right) E0771 alone cells treated with staurosporine (1 µM, 1 h). c) Representative flow cytometry contour plots of CD8+ T cells in: left) co-cultures of E0771 […]
# cells (50,000 cells well -1) and activated (IL-2 for 24 h) murine CD8+ T cells (200,000 cells […]
# well-1), center) co -cultures of E0771 cells (50,000 cells well -1) and non-activated (IL-2 for […]
# 2 h) murine CD8+ T cells (200,000 cells well -1). All cultures in b) and c) were equally […]
# from H5-labeled E0771 cancer cells following co -culture with IL-2 activated CD8+ T cells […]
# with and without preincubation of the GzmB inhibitor Ac -IEPD-CHO. Data presented as […]
# 633/670 nm (for AF647-Annexin V). Representative plots from independent experiments performed in triplicate. Source data in d provided as a Source Data file.
# [2] = test system: E0771 cells alone or in co-culture with CD8+ T cells; assay: Hit validation of AZD5363 by flow cytometry; conditions: IL-2, co-culture with CD8+ T cells
# Protocol: (from 3 independent experiments) in E0771 cells alone (50,000 cells well-1) or in co-culture with CD8+ T cells (200,000 cells well-1) and treatment of AZD5363 (1 μM). IL-2 concentration: 1,000 U mL-1. Excitation/emission wavelengths: 488 nm/525 nm. b) Representative flow cytometry contour plots (from 3 independent experiments; gating […]
# (1 picture or pasted object on this page, not shown here) […]
# strategy shown in Supplementary Figure 7) of E0771 cells (50,000 cells well-1) after co-culture with murine CD8+ T cells (200,000 cells well -1) and dual treatment with IL -2 (200 […]
# U mL-1) and AZD5363 (1 μM).
# 633/670 nm (for AF647-Annexin V). c) Percentages of E0771 cells that were double - […]
# in a). Data presented as mean values±SEM (n=3). P values (p<0.001 and p=0.0093) were obtained from ONE-ANOVA tests with multiple c omparisons. Source data in c provided
# [3] = co-culture with active CD8+ T cells (24 h IL-2), replicate 1
# [4] = co-culture with active CD8+ T cells (24 h IL-2), replicate 2
# [5] = co-culture with active CD8+ T cells (24 h IL-2), replicate 3
# [6] = co-culture with inactive CD8+ T cells (2 h IL-2), replicate 1
# [7] = co-culture with inactive CD8+ T cells (2 h IL-2), replicate 2
# [8] = co-culture with inactive CD8+ T cells (2 h IL-2), replicate 3
substance,measurement,setting,value
"IL-2: interleukin IL-2, cytokine for survival, proliferation and activation of CD8+ T cells",CD8+ T cells expressing GzmB,[1],over 80%
same,Annexin V +ve E0771 cells,E0771 cells; [3],88%
same,viable E0771 cells,E0771 cells; [3],12%
same,Annexin V +ve E0771 cells,E0771 cells; [4],88%
same,viable E0771 cells,E0771 cells; [4],10%
same,Annexin V +ve E0771 cells,E0771 cells; [5],84%
same,viable E0771 cells,E0771 cells; [5],19%
same,Annexin V +ve E0771 cells,E0771 cells; [6],18%
same,viable E0771 cells,E0771 cells; [6],74%
same,Annexin V +ve E0771 cells,E0771 cells; [7],14%
same,viable E0771 cells,E0771 cells; [7],86%
same,Annexin V +ve E0771 cells,E0771 cells; [8],39%
same,viable E0771 cells,E0771 cells; [8],62%
same,E0771 cells double-stained with probe H5 and AF647-Annexin V,[2]; Data1,21%
same,E0771 cells double-stained with probe H5 and AF647-Annexin V,[2]; Data2,29%
same,E0771 cells double-stained with probe H5 and AF647-Annexin V,[2]; Data3,27%
